The test system of data set [1] is Mus musculus. The experiment in a line: Toxicity ip dosed whole-body gamma-irradiated mouse compound administered 15 mins prior irradiation. Conditions: in vivo, 0.25 h.
Data set [2] has as its system Mus musculus. The experiment in a line: Protective index, ratio of LD50 for mouse to ED50 for antiradiation activity in ip dosed whole-body gamma-irradiated mouse.
For data set [3], the system named is Mus musculus. The experiment in a line: Toxicity po dosed whole-body gamma-irradiated mouse compound administered 30 mins prior irradiation. Conditions: in vivo, 0.5 h.
For data set [4], the system named is Mus musculus. The experiment in a line: Toxicity ip dosed whole-body gamma-irradiated mouse compound administered 30 mins prior irradiation. Conditions: in vivo, 0.5 h.
For data set [5], the system named is Mus musculus. The experiment in a line: Toxicity po dosed whole-body gamma-irradiated mouse compound administered 30 to 60 mins prior irradiation. To be noted: in vivo.

Where only a bound is given, the exact number is not on record here.

For `NCCCCCC(N)CSP(=O)(O)O` (stereo unspecified), the LD50 (commonly the dose expected to kill half of the subjects tested) in the data set with Mus musculus [1] is 500 mg/kg; in the data set with Mus musculus [3], above 1000 mg/kg. Besides, the PI in the data set on Mus musculus [2] amounted to 8.
With `NCCCC[C@H](N)CSP(=O)(O)O`, the LD50 turned out to be 325 mg/kg in the data set on Mus musculus [1] and 750 mg/kg in the data set on Mus musculus [3]. In addition, the PI in the data set on Mus musculus [2] came to 20.
For `NCCC[C@H](N)CSP(=O)(O)O` the same measures were above 800 mg/kg, above 1000 mg/kg and above 22.
The matching figures for `NCCCCC(N)CSP(=O)(O)O` (stereo unspecified): 450 mg/kg, 900 mg/kg and 29.
The matching figures for `NCCCC(N)CSP(=O)(O)O` (stereo unspecified): above 1000 mg/kg, above 1500 mg/kg and above 15.
Regarding `NCC[C@H](N)CSP(=O)(O)O`, the LD50 is above 1250 mg/kg with Mus musculus [1] and above 1500 mg/kg in the data set with Mus musculus [3]. In addition, the PI in the data set on Mus musculus [2] is above 23.
With `NCC(N)CSP(=O)(O)O` (stereo unspecified), the 50% lethal dose (LD50) was above 900 mg/kg with Mus musculus [4] and 1600 mg/kg in the data set on Mus musculus [5]. For the same compound, the PI in the data set with Mus musculus [2] was above 5.9.

These data come from ChEMBL document CHEMBL3244256 (J Med Chem, 1979).
